Measured values reported in patent publication US20220331458A1, “AGENTS FOR CLEAVING LABELS FROM BIOMOLECULES IN VIVO” (TAGWORKS PHARMACEUTICALS B.V., priority 2019, published 2022).

Test: ^111In biodistribution in normal mice after ^111In-trastuzumab-1.8 followed by 2.10 or vehicle
Format: in vivo
Conditions: ^111In-trastuzumab-1.8 followed by 2.10 24 h post-mAb; euthanized 24 h later; SD, n = 4

^111In biodistribution, Lung: 2.13 ± 0.41 % injected dose per gram
Structure (SMILES): O=C(CCCC(=O)Nc1cnccc1-c1nnc(-c2ccncc2NC(=O)CCCC(=O)NCCOCCOCCOCCOCCOCCOCCOCCOCCOCCO)nn1)NCCOCCOCCOCCOCCOCCOCCOCCOCCOCCO [Compound 2.10, N^1,N^1′-(4,4′-(1,2,4,5-Tetrazine-3,6-diyl)bis(pyridine-4,3-diyl))bis(N^5-(29-hydroxy-3,6,9,12,15,18,21,24,27-nonaoxanonacosyl)glutaramide)]
